Literature values, collected in patent US8414660B2, “Haloferax volcanii laccase and variants and fragments thereof” (University of Florida Research Foundation, Inc., priority 2009, dated 2013).
Where two headings read alike, the source gives them in different places.

What was measured:
[1] = comparator laccase-like enzymes, literature, cited from earlier work
[2] = comparator laccase-like enzymes, literature, cited from earlier work; remark: listed apart in the source
[3] = 5 h at 90° C., literature; cited from earlier work

McoA [reference compound]
kcat, ABTS [1]: 2.1 s⁻¹ | Km ([1]; read-out: Km, ABTS): 128 µM | kcat, SGZ [2]: 0.48 s⁻¹ | Km ([2]; read-out: Km, SGZ): 38 µM | Activity after incubation at high temperature [3]: ability to oxidize metals
